Results: paper PMC3486420, “In Vitro and In Vivo Characterizations of Chiglitazar, a Newly Identified PPAR Pan-Agonist” (PPAR Research, 2012)

Experiments:
PPARα [1] = target: T1, PPARα (Homo sapiens, UniProt Q07869); assay: PPARα transactivation reporter gene assay in U2OS cells; assay type: cell-based; conditions: max response compared with WY at 50 μM
T1 sequence (Q07869 1-468): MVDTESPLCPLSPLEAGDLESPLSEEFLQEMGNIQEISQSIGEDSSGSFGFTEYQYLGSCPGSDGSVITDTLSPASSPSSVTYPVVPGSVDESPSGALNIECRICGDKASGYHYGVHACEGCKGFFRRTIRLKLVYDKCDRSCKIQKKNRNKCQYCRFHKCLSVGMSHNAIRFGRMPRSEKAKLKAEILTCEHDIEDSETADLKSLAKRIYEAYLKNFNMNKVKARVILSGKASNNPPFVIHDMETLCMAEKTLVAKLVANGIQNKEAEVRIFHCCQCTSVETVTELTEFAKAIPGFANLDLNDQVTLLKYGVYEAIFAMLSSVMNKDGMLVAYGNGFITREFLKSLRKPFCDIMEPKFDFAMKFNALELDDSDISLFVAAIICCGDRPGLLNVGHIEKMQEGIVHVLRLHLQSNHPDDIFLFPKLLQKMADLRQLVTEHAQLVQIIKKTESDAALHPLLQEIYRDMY
T1 sequence (P19793 1-462 partner): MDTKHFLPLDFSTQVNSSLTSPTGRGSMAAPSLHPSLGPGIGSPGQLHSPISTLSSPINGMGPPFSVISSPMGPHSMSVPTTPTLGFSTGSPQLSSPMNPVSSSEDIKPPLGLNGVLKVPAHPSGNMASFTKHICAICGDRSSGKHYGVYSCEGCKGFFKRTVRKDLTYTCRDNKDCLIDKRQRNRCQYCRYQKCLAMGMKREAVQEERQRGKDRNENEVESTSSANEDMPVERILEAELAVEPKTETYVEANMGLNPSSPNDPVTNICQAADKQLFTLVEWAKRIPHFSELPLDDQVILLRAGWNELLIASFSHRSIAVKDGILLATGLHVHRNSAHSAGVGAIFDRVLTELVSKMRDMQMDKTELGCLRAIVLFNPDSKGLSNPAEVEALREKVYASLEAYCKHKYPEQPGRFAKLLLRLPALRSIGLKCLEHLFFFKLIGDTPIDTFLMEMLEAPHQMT

PPARα [2] = target: T1, PPARα; assay: PPARα transactivation reporter gene assay in SMMC-7721 cells; assay type: cell-based; conditions: max response compared with WY at 50 μM

`CN(CCOc1ccc(CC2SC(=O)NC2=O)cc1)c1ccccn1` (centres unmarked) [Ros, rosiglitazone] was tested, and the “PPARα % Max” value (PPARα [1]) was 16% and the “PPARα % Max” value (PPARα [2]) was 11%.
